{
  "sequences": {"note": "Chains of the proteins cited; added tags and fusions are not shown. Residues count along the entry.", "UniProt O70212, 20-490": "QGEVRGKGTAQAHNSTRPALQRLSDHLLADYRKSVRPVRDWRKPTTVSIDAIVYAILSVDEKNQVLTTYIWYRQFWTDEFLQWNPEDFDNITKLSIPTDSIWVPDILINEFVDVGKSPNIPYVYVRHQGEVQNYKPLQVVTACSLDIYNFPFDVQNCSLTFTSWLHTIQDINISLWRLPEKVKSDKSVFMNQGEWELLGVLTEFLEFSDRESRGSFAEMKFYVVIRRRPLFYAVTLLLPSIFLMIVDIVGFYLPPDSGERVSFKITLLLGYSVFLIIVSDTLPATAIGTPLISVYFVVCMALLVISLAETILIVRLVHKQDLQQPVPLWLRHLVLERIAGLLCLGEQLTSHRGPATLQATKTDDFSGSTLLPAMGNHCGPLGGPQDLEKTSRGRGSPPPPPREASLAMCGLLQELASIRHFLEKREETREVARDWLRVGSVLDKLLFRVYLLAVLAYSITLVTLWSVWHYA"},
  "source": "patent US4910193A",
  "about": "“Treatment of gastrointestinal disorders” (Sandoz Ltd., priority 1987, dated 1990)",
  "target": "T1, low affinity 5-HT receptor (Cavia porcellus, UniProt O70212)",
  "T1 construct": "The isolated longitudinal muscle of the guinea pig ileum with its adhering myenteric plexus; from tissue; host or cells: longitudinal muscle strips of ileum with myenteric plexus, male guinea pigs",
  "test": "Isolated longitudinal muscle of guinea pig ileum, 5-HT contraction, low affinity receptor",
  "settings": "agonist, in words",
  "data": [
    {"compound": "NCCc1c[nH]c2ccc(O)cc12", "note": "[Compound 5-HT, reference compound]", "values": [
      {"measurement": "contractile effect of 5-HT on longitudinal muscle strip", "value": "concentration-dependent contractile effect"}
    ]}
  ]
}
